Biological target: Acetylcholinesterase (Homo sapiens, UniProt P22303)
Assay: Inhibition of human AChE using acetylthiocholine as substrate after 4 hrs by robotic spectrophotometric assay

The chains behind the UniProt entries cited, without tags or fusion partners. Residues count along the entry.
UniProt P22303, 32-614 limits assumed: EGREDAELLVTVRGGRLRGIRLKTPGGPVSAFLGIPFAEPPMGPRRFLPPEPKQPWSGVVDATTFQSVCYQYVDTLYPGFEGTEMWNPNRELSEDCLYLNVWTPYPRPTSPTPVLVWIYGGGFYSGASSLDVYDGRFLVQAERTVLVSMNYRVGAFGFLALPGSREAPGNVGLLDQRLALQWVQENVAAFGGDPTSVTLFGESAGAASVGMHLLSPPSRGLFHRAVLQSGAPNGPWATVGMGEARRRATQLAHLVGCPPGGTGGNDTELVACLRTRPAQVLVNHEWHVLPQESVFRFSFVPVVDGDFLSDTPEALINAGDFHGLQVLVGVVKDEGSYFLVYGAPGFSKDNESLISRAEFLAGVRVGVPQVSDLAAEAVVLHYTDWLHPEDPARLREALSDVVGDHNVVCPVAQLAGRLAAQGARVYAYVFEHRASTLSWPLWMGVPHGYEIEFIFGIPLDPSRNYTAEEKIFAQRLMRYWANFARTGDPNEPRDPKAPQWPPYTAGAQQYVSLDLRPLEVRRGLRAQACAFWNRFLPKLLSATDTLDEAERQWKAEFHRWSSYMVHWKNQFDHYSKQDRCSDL

Row | SMILES | Ki
1 | N#C/C(=N\O)C(=O)NC1CCN(Cc2ccccc2)CC1 | 732 µM
2 | COc1cc2c(cc1OC)C(c1ccccc1)N(CCCNC(=O)/C=N/O)CC2 (centres undefined) | 595 µM
3 | O=C(/C=N/O)c1ccc(NCC2CCN(Cc3ccccc3)CC2)nc1 | 286 µM
4 | O/N=C/c1cnc(OCC2CCN(Cc3ccccc3)CC2)nc1 | 198 µM
5 | O=C(/C=N/O)c1ccnc(OCC2CCN(Cc3ccccc3)CC2)c1 | 144 µM
6 | O=C(/C=N/O)NCC1CCN(Cc2ccccc2)CC1 | 3180 µM
7 | COc1cc2c(cc1OC)C(c1ccccc1)N(CCCNC(=O)/C(=N/O)C(C)=O)CC2 (centres undefined) | 1930 µM
8 | COc1ccc(CN2CCCC(COc3ccc(C(=O)/C=N/O)cn3)C2)cc1OC (centres undefined) | 345 µM
9 | O=C(/C=N/O)c1cccc(OCC2CCN(Cc3ccccc3)CC2)n1 | 199 µM
10 | O=C(/C=N/O)c1ccc(OCC2CCN(Cc3ccc(F)c(F)c3)CC2)nc1 | 159 µM
11 | COc1ccc(CN2CCCCC2COc2ccc(C(=O)/C=N/O)cn2)cc1OC (centres undefined) | 233 µM
12 | O=C(/C=N/O)c1ccc(OCC2CCN(Cc3ccccc3)C2)nc1 (centres undefined) | 137 µM
13 | O=C(/C=N/O)c1cccnc1OCC1CCN(Cc2ccccc2)CC1 | 180 µM
14 | O=C(/C=N/O)NC1CCN(Cc2ccccc2)CC1 | 2430 µM
15 | COc1ccc(CN2CCC(COc3ccc(C(=O)/C=N/O)cn3)CC2)cc1OC | 1930 µM
16 | CC(=O)/C(=N\O)C(=O)NC1CCN(Cc2ccccc2)CC1 | 234 µM
17 | COc1ccc(CN2CCC(COc3ccc(C(=O)/C=N/O)cn3)C2)cc1OC (centres undefined) | 2520 µM
18 | O/N=C/c1ccc(OCC2CCN(Cc3ccccc3)CC2)nc1 | 266 µM
19 | O=C(/C=N/O)c1ccc(OCC2CCCCN2Cc2ccccc2)nc1 (centres undefined) | 551 µM
20 | COc1ccc(CN2CCC(CNC(=O)/C(=N/O)C(C)=O)CC2)cc1OC | 1620 µM
21 | COc1cc2c(cc1OC)CN(CCCNC(=O)/C(=N/O)C(C)=O)CC2 | 2670 µM
22 | CC(=O)/C(=N\O)C(=O)NCC1CCN(Cc2ccccc2)CC1 | 2300 µM
23 | O=C(/C=N/O)c1ccc(OCC2CCN(Cc3cccc(Cl)c3)CC2)nc1 | 298 µM
24 | N#Cc1ccc(CN2CCC(COc3ccc(C(=O)/C=N/O)cn3)CC2)cc1 | 1610 µM

Reference: BindingDB's records for 24630558
